Experiment: Deoxyribose degradation activity was measured as hydroxyl radical formation; further: unit not given here

Activity: < 0.3
Compound: COc1ccc(CC(=O)C2c3cccc(O)c3C(=O)c3c(O)cccc32)cc1

From ChEMBL document CHEMBL1134364, “Antipsoriatic anthrones with modulated redox properties. 5. Potent inhibition of human keratinocyte growth, induction of keratinocyte differentiation, and reduced membrane damage by novel 10-arylacetyl-1,8-dihydroxy-9(10H)-anthracenones” (J Med Chem, 2001)
